Experimental data reported in US4451473A, “3,7-Diazabicyclo [3.3.1] nonanes having anti-arrhythmic activity” (Richter Gedeon Vegyeszeti Gyar Rt., priority 1981, dated 1984).
Where a name gives a salt, the structure may show the parent alone.

How the values were obtained:
in vivo = conditions: mouse, iv
[1] = system: calcium antagonistic effect; experiment: Calcium antagonistic effect (pA2); conditions: in words
[2] = ratio oral to intravenous; species not stated
[3] = system: disorders of cardiac rhythm provoked by aconitine in rats; assay type: in vivo; conditions: ED50 rat i.v. / LD50 mouse i.v.
Procedure: When examining the antiarrhythmic effects, rats were pre-treated intravenously with 1 mg/kg of aconitine to provoke disorders of cardiac rhythm [Med. Exp. (Basel) 10, 93 (1964)], thereafter the test compound was administered intravenously, and the dose required to restore the rhythm in 50% (ED50 mg/kg) was determined.
The therapeutical indices (ED50 /LD50) as well as the ratio of indices (therapeutical index of the new compound:therapeutical index of Lidocaine) are also given in the Table.

CCN1CC2CN(C)CC(C1)C2OC(=O)c1ccc(Cl)cc1 (stereo not drawn) [3-Methyl-7-ethyl-9α-(4'-chloro-benzoyloxy)-3,7-diazabicyclo[3.3.1]nonane dihydrochloride]
LD50 (in vivo): 26 mg/kg
calcium antagonistic effect (pA2) relative to Verapramil [1]: about the same as that of the Verapramil
ED50 p.o./ED50 i.v. [2]: 16.7
Therap. index (ED50/LD50) [3]: 0.023
